# Results taken from patent US6552060B1, “Asymmetric disulfides and methods of using same” (Prolx Pharmaceuticals, Inc., priority 1997, dated 2003).
# System: HL60 cells
# Test: Induction of apoptosis in HL60 cells
# Assay type: cell-based, human
# Details: N-acetylcysteine for 13 h prior to exposure
structure (smiles),measurement,value
"CCCCSSc1ncc[nH]1 [III-2, n-butyl 2-imidazolyl disulfide]",apoptosis after pretreatment with N-acetylcysteine,prevented apoptosis
